Values of other authors, collected in patent publication US20230065562A1, “DUAL CONTROLS FOR THERAPEUTIC CELL ACTIVATION OR ELIMINATION” (Bellicum Pharmaceuticals, Inc., priority 2015, published 2023).
pEC50: −log10 of the molar value.

The chains behind the UniProt entries cited, without tags or fusion partners. Where a name states a change or a piece, a line headed by the entry shows the natural chain unless it says otherwise.
UniProt P62942: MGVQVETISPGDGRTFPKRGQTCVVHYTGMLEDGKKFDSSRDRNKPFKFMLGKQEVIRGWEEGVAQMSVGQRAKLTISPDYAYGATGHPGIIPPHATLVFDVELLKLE

Legend:
[1] = target: FRB-KLW (Homo sapiens, UniProt P42345+P62942, T2098L); settings: cited from earlier work
[2] = target: wt FRB (K2095 T2098 W2101) (Homo sapiens, UniProt P42345+P62942); settings: cited from earlier work

S-o,p-dimethoxyphenyl (DMOP)-rapamycin
pEC50 [1]: ~8.30
pEC50 [2]: ~6.00
